Measured values reported in PubChem BioAssay AID624467 (The Scripps Research Institute Molecular Screening Center, 2012).
Only a part is listed here, and it is no random draw. Some results for these compounds are left out of this collection, so the calls shown say nothing about other tests. The source made the active and inactive calls.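 Rule for the calls: active = activation above the mean activation of all test compounds in the run plus 3 SD (cut at about 38% in these data); inactive = the rest.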

By UniProt entry, the sequences of proteins in these tests, tags left out.
UniProt Q96RJ0, whole entry: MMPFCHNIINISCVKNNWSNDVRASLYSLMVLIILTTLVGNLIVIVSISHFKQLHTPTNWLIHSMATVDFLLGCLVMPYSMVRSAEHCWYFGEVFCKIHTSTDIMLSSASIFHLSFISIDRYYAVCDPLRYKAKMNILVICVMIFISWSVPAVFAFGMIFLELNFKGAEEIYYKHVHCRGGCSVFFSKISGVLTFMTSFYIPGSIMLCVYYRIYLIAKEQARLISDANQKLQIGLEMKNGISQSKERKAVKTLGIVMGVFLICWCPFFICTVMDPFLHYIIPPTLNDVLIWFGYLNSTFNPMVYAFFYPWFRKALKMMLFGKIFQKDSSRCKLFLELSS

Target: Trace amine-associated receptor 1 (Homo sapiens) (UniProt Q96RJ0)
Test: activators of TAAR1 calcium mobilization – Fluo-8 calcium fluorescence, CHO RD-HGA16 cells, primary screen (AID 624467)
Conditions: CHO RD-HGA16 TAAR1, Fluo-8 calcium fluorescence; at 3 µM; stronger effect = higher value; vehicle wells 0%, saturating PEA agonist 100%

SMILES | activation
O=C(OC1CN2CCC1CC2)C(CO)(c1ccccc1)c1ccccc1 (stereo unspecified) | inactive: 3.07%
COc1ccc(Br)c(C(=O)NCC2(N3CCCCC3)CCCCC2)c1 | inactive: -4.14%
C=C(C)C#CC(O)(C(=O)OC1CCN(C)CC1)c1ccccc1 (stereo unspecified) | inactive: 4.66%
CN(C)c1cccc(C(=O)NCC2(N(C)C)CCCCC2)c1 | inactive: 1.72%
O=C(OCCN1CCCC1)C(O)(c1ccccc1)c1ccccc1 | inactive: 2.56%
CC(C)Oc1ccc(C(=O)NCC2(N(C)C)CCCCC2)cc1 | inactive: 6.32%
CN(C)C1(CNC(=O)c2ccc(Br)cc2)CCCCC1 | inactive: 6.04%
COc1cc(C(=O)NCC2(N(C)C)CCCCC2)c([N+](=O)[O-])cc1OC | inactive: 0.28%
COc1ccc(Cl)cc1C(=O)NCC1(N(C)C)CCCCC1 | inactive: 0.62%
COc1cccc(C(=O)NCC2(N3CCCCC3)CCCCC2)c1 | inactive: 0.04%
O=C(NCC1(N2CCCCC2)CCCCC1)c1cccc(Cl)c1 | inactive: -0.82%
CN(C)c1ccc(C(=O)NCC2(N(C)C)CCCCC2)cc1 | inactive: 8.65%
CN(C)C1CCCC1OC(=O)C(O)(c1ccccc1)c1ccccc1 (stereo unspecified) | inactive: 2.13%
Cc1ccccc1C(=O)NCC1(N2CCCCC2)CCCCC1 | inactive: 8.78%
O=C(NCC1(N2CCCCC2)CCCCC1)c1cc(F)c(F)cc1Cl | inactive: -0.17%
C=CCN1CCN(CCOC(=O)C(O)(c2ccccc2)c2ccccc2)CC1 | inactive: 3%
O=C(NCC1(N2CCCCC2)CCCCC1)c1cccc(Br)c1 | inactive: 0.66%
CCN1CCCC(OC(=O)C2(O)c3ccccc3C=Cc3ccccc32)C1 (stereo unspecified) | inactive: 4.94%
Cc1cc(C(=O)NCC2(N3CCCCC3)CCCCC2)ccc1[N+](=O)[O-] | inactive: 14.2%
COc1ccc(C(=O)NCC2(N(C)C)CCCCC2)cc1 | inactive: 0.14%
O=C(NCC1(N2CCCCC2)CCCCC1)c1cc([N+](=O)[O-])ccc1Cl | inactive: -0.98%
CN1[C@@H]2CC[C@H]1CC(OC(=O)C(O)(c1ccccc1)c1ccccc1)C2 (stereo partly specified) | inactive: 3.19%
CC(C)N1C(=O)CC2(CCN(CCOC(=O)C(O)(c3ccccc3)c3ccccc3)CC2)C1=O | inactive: 5.84%
COc1cc(SC)ccc1C(=O)NCC1(N(C)C)CCCCC1 | inactive: -0.67%
CCN(CC)CC(C)C(C)OC(=O)C(O)(c1ccccc1)c1ccccc1 (stereo unspecified) | inactive: -0.12%
Cc1ccc(C(=O)NCC2(N3CCCCC3)CCCCC2)cc1 | inactive: 4.69%
